Test results: patent US20110257233A1, “BENZOISOTHIAZOLONES AS INHIBITORS OF PHOSPHOMANNOSE ISOMERASE” (Sanford-Burnham Medical Research Institute, priority 2010, published 2011)
Entries after “also recorded” stand apart in the source; their conditions may differ. Read-outs that look alike come from different tables or passages of the source.

Tests used:
[1] = target: T1, phosphomannomutase 2 (PMM) (Homo sapiens, UniProt O15305); experiment: PMM enzyme inhibition assay; assay type: biochemical
T1 sequence (O15305 1-246): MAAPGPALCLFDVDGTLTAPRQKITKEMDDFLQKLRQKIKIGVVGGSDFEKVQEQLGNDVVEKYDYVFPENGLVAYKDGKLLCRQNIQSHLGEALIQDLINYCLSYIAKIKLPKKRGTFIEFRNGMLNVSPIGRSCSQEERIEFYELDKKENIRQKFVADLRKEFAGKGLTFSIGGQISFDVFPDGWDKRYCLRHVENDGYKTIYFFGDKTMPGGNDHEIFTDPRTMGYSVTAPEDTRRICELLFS

[2] = target: T2, phosphomannose isomerase (PMI) (Homo sapiens, UniProt P34949); experiment: PMI enzyme inhibition assay; assay type: biochemical; details: mean of at least three determinations
T2 sequence (P34949 1-423): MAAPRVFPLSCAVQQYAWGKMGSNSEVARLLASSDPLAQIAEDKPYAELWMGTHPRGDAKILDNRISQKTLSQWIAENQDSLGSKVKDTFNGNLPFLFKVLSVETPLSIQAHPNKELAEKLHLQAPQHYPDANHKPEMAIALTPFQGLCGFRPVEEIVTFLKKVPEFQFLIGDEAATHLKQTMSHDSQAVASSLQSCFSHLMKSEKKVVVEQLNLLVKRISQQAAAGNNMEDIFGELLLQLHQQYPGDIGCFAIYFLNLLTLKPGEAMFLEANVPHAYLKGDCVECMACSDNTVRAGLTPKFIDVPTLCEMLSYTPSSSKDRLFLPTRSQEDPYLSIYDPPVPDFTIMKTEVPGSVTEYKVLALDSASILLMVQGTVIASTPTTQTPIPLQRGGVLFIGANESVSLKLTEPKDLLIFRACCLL

[3] = tested on: protein glycosylation (mannose incorporated in proteins); experiment: Cellular assay: 3H-mannose incorporated in proteins vs glycolysis; assay type: cell-based
Protocol: A cellular assay was developed and utilized to provide proof-of-concept for the potential of the optimized PMI inhibitors as CDG therapeutics. […] Briefly. cells were preincubated with inhibitors and labeled with 3H-Mannose and 35S-Met/Cys. After washing and lysis, 3H- and 35S amounts were determined in the proteins.

Compound | PMM inhibition ([1]; tested up to 20 μM) | IC50 [2] [nM] | fold increase in the amount of mannose incorporated in proteins vs glycolysis [3] [fold] | fold increase in the amount of mannose incorporated in proteins vs glycolysis ([3]; 25.0 μM) [fold] | fold increase in the amount of mannose incorporated in proteins vs glycolysis ([3]; 50 μM) [fold] | IC50 ([1]; mean of at least three determinations) [nM]
O=c1c2ccccc2sn1-c1ccccc1 [Compound 1, 2-Phenyl-2-hydrobenzo[d]isothiazol-3-one] | completely devoid of PMM inhibition; also recorded: inactive | – | – | – | – | –
O=c1c2ccccc2sn1-c1ccc(Cl)cc1 [Compound 8, 2-(4-Chlorophenyl)-2-hydrobenzo[d]isothiazol-3-one] | – | 1900 | 11.6 | 17.3 | 6.1 | –
O=c1c2ccccc2[se]n1-c1ccccc1 [Ebselen, 2-phenyl-1,2-benzisoselenazol-3(2H)-one, reference compound] | – | 190 | – | – | – | 670
